## Measured affinities in a library of Ab-14 light chain variants

Data: MIT Lincoln Laboratory AlphaSeq set, Engelhart et al. 2022, doi:10.1038/s41597-022-01779-4, as distributed in FLAb.

Antigen: PDVDLGDISGINAS, a 14-residue peptide of the SARS-CoV-2 spike HR2 region.

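AAYL50 was designed without a model: most single CDR substitutions and a random sample of double and triple ones. In AlphaSeq, yeast of one mating type display the scFv and yeast of the other type display the target. The frequency of each diploid, read from paired DNA barcodes, reflects how well the two displayed proteins bind. Each replicate has its own calibration line, from reference interactions of the BCL2 family. The assay was run in three technical replicates.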

Each scFv is VH, a 15-residue (Gly4Ser)3 linker, VL, as in the parent Ab-14, and differs from it in the CDRs of the light chain only.
VH: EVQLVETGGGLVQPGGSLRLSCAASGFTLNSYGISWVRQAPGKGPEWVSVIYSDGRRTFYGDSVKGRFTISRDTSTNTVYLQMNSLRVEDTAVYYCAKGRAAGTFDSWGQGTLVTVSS
VL: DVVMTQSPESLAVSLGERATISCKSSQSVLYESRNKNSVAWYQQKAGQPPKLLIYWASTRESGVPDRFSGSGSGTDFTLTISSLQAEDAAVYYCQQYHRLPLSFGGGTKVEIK

Substitutions are numbered in sequence along the VL above, starting at 1 (not Kabat).
Scale: log10 of Kd in nM, estimated from mating counts; low values are strong binders.
A pair that was not seen in that replicate is written "ND"; this usually means weak binding, but a binder can also be missed.
As a blank, each scFv also met three strains without target: over library AAYL50, 18% of these pairings were detected, typically at 4.19 and seldom below 2.99. The control count says in how many pairings with the empty strains this scFv gave a signal, with their mean in brackets.

| changes | log10 Kd (nM) by replicate | empty controls |
|---|---|---|
| S25M+Y31C+Q95H | 1.00 / 1.12 / 1.30 | 0 of 9 |
| Q96P+H98Y | 1.56 / 1.64 / 1.95 | 2 of 9 (3.59) |
| A57C+E61G+Q95V | ND / ND / ND | 0 of 9 |
| S33T+K36H+T59L | 1.15 / 1.35 / 1.38 | 0 of 9 |
| N35F+A40M+R60I | ND / ND / ND | 0 of 9 |
| E61N+Q95K | 2.32 / 2.50 / 2.77 | 0 of 9 |
| N37D+L100A | ND / ND / ND | 0 of 9 |
| Q27M+A40P+Q96A | ND / 3.65 / ND | 2 of 9 (3.57) |
| K24N+N35P+Q96H | 1.75 / 1.40 / 1.60 | 2 of 9 (4.48) |
| Q95T+R99M+L102M | 2.67 / 2.60 / 3.05 | 0 of 9 |
| S28G+L30M+R99F | 0.70 / 0.93 / 0.81 | 4 of 9 (4.68) |
| S26Q+W56P | ND / ND / 3.63 | 2 of 9 (3.69) |
| V29Y+A57G | 0.71 / 1.05 / 0.69 | 2 of 9 (3.91) |
| K24Y+A40I+E61Y | 2.91 / ND / ND | 0 of 9 |
| S25M+S58Q+L102W | ND / ND / ND | 1 of 9 (3.51) |
| N35P+E61P+Q96H | 4.35 / 2.67 / 3.07 | 4 of 9 (4.34) |
| Q27I+S33Y+N37C | 2.06 / 2.04 / 2.32 | 2 of 9 (6.04) |
| Q96T+P101H+L102N | ND / 3.02 / ND | 2 of 9 (3.88) |
| S28F+K36C+A57R | ND / 4.93 / 4.69 | 0 of 9 |
| Y31R+T59N+S62G | ND / ND / ND | 1 of 9 (3.69) |
| S25M+A40F+T59A | ND / ND / ND | 1 of 9 (2.74) |
| S28G+T59P+S62R | ND / ND / ND | 0 of 9 |
| R34D+L102A+S103E | ND / ND / ND | 0 of 9 |
| Q27W+N37V+Q95Y | 2.93 / 2.45 / 3.87 | 1 of 9 (3.79) |
| K24A+A57F+L102M | ND / ND / 3.68 | 2 of 9 (4.35) |
| S28L+H98L+L102F | 1.48 / 1.41 / 1.41 | 3 of 9 (4.34) |
| S25F+V39L+Q95V | ND / 3.59 / 4.55 | 1 of 9 (5.40) |
| Q27S+V29W+Q95W | 3.51 / ND / ND | 0 of 9 |
| S28N+S33T+V39R | ND / ND / ND | 1 of 9 (3.14) |
| R34N+K36E | 1.49 / 0.96 / 1.17 | 0 of 9 |
| E32C+A40K+L100H | ND / 2.91 / ND | 0 of 9 |
| K36V+W56D+R60A | -0.09 / 0.25 / 0.07 | 4 of 9 (4.63) |
| Q27I+A57E+S103C | ND / ND / ND | 0 of 9 |
| S28E+Y31R+S58G | ND / ND / ND | 2 of 9 (4.29) |
| S28K+Y31N+N35Q | ND / ND / ND | 0 of 9 |
| S28W+S38K+P101C | ND / ND / ND | 4 of 9 (4.30) |
| Y31V+V39N+Q96C | ND / ND / ND | 0 of 9 |
| S58K+H98W | 1.32 / 1.42 / 1.31 | 3 of 9 (4.45) |
| N37Q+Q96V+Y97I | ND / ND / ND | 1 of 9 (3.75) |

Excerpt, the first 5 entries:

changes,log10 Kd (nM) by replicate,empty controls
S25M+Y31C+Q95H,1.00 / 1.12 / 1.30,0 of 9
Q96P+H98Y,1.56 / 1.64 / 1.95,2 of 9 (3.59)
A57C+E61G+Q95V,ND / ND / ND,0 of 9
S33T+K36H+T59L,1.15 / 1.35 / 1.38,0 of 9
N35F+A40M+R60I,ND / ND / ND,0 of 9